This is a selection; strong and weak results do not stand in their true shares. Calls of active or inactive are those of the source. Cut-off read from the data, not from the text of the source: active = inhibition above about 26% (passing the limit was not always enough); inconclusive = no clear call, values can overlap the other calls.
Each compound was assayed against Histone deacetylase 3 (Homo sapiens) (UniProt O15379) (assay: inhibition of human HDAC3 enzyme activity – biochemical, fluorescence, cell-free homogeneous, primary screen (AID 2718)). Settings: recombinant HDAC3, fluorogenic peptide/trypsin coupled, at 8.3 µM, active compounds read high.

By UniProt entry, the sequences of proteins in these tests, tags left out. Where a name states a change or a piece, a line headed by the entry shows the natural chain unless it says otherwise.
UniProt O15379: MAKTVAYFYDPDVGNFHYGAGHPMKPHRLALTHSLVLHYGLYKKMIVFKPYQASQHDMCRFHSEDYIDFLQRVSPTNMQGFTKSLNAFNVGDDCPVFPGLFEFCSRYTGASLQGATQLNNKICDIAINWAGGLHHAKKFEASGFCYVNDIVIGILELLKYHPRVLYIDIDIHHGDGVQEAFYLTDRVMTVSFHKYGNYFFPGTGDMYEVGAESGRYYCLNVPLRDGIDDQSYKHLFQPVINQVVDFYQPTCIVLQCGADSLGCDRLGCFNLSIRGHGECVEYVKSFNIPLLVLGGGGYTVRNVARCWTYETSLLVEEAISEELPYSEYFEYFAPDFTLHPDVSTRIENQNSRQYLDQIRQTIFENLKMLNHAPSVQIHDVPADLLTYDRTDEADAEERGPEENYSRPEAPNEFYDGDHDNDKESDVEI

Structure (SMILES)	inhibition
CS(=O)(=O)c1cc([N+](=O)[O-])c2no[n+]([O-])c2c1	active: 34.3%
CCOP1(=S)c2c(C)nn(CCC#N)c2N=C(c2ccccc2F)N1C (configuration not stated)	inactive: -5.54%
O=P(Nc1nccs1)(c1ccccc1)c1nc2ccccc2s1 (configuration not stated)	inactive: 15.3%
O=P(Nc1nccs1)(Oc1ccccc1)Oc1ccccc1	inactive: -3.18%
Nc1ccccc1[As](=O)(O)c1ccccc1	inactive: -1.86%
O=C(O)COc1ccc([As](=O)(O)O)cc1[N+](=O)[O-]	inactive: -0.46%
CCCOP(=S)(Nc1nc(N)cc(=O)[nH]1)OCCC	inactive: 3.14%
Nc1cccc2c([As](=O)(O)O)cccc12	inactive: -2.99%
COc1cc(C2NCCC3(OCCO3)C2(C)C)cc(OC)c1OC (configuration not stated)	inactive: -0.0282%
CCOP(=O)(Nc1cccc2ccccc12)OCC	inactive: -8.16%
O=[As](O)(O)c1cccnc1	inactive: -5.6%
CS(=O)(=O)c1ccc(Cl)c(NC(=O)COC(=O)C(O)(c2ccccc2)c2ccccc2)c1	inactive: 1.03%
O=C(OC1CN2CCC1CC2)c1ccc(Cl)cc1 (configuration not stated)	inactive: 0.573%
O=[As](O)(c1cccc(O)c1)c1cccc(O)c1	inactive: 1.7%
Cc1cccc(OCC(=O)OC2CN3CCC2CC3)c1 (configuration not stated)	inactive: -4.55%
COc1ccc(N/C(=N/P(=O)(N2CCOCC2)N2CCOCC2)N2CCOCC2)cc1	inactive: -8.44%
O=C(OC1CN2CCC1CC2)C12CC3CC(CC(C3)C1)C2 (configuration not stated)	inactive: 0.368%
Cc1cc(=O)[nH]c(N[N+](=O)[O-])n1	inactive: 3.7%
Cc1c2c(nc3ccccc13)SC(C(Cl)Cl)C2 (configuration not stated)	inactive: 0.0757%
COc1ccc2nc(NP(=O)(c3ccccc3)c3ccccc3)sc2c1	inactive: -0.664%
COc1cc(I)ccc1[As](=O)(O)O	inactive: 8.12%

Structure (SMILES)	inhibition
CC(C)c1ccc(OP(=O)(Nc2ccccn2)Oc2ccccc2F)cc1 (configuration not stated)	inactive: -0.929%
ClCCSc1nnc(-c2cccnc2)o1	inactive: 0.834%
CCN(CC)C(=S)SC(NC=O)C(Cl)(Cl)Cl (configuration not stated)	inactive: 1.8%
CC(C)NC(=O)NP(=O)(Oc1ccccc1)Oc1ccccc1	inactive: 4.39%
O=[N+]([O-])c1cc([N+](=O)[O-])c(-c2ccn[nH]2)s1	inactive: -0.295%
C[As](=O)(O)c1cccc(C(=O)O)c1	inactive: 4.96%
O=[As](O)(c1ccc(O)cc1)c1ccccc1O	inactive: 0.0444%
COc1cc(C(=O)NCC2(N3CCOCC3)CCCCC2)ccc1OCC(C)C	inactive: -5.76%
Cc1ccc2nc3c(c(C)c2c1)CC(C(Cl)Cl)S3 (configuration not stated)	inactive: -8.39%
Cc1ccc(OP(=O)(Nc2ccc([N+](=O)[O-])cn2)Oc2ccc(C)cc2)cc1	inactive: 6.4%
CCOC(=O)Nc1cccc([As](=O)(O)O)c1	inactive: 4.35%
O=[N+]([O-])c1ccc(Nc2ccc(Oc3ccc([N+](=O)[O-])cc3[N+](=O)[O-])cc2)c([N+](=O)[O-])c1	inactive: 1.48%
O=P(Nc1ccccn1)(c1cccc2ccccc12)c1cccc2ccccc12	inactive: 6.44%
Cc1cc(SC(NC=O)C(Cl)(Cl)Cl)ncn1 (configuration not stated)	inactive: 7.46%
Cc1cc(SC(NC(=O)c2ccccc2)C(Cl)(Cl)Cl)nc(C(C)C)n1 (configuration not stated)	inactive: 6.05%
CCOC(=O)c1ccc(NC(=O)C(C)(CCl)SC)cc1 (configuration not stated)	inactive: 6.19%
O=C(OC1CN2CCC1CC2)c1cccc([N+](=O)[O-])c1 (configuration not stated)	inactive: 3.72%
CCC(C)N(CC(C)C)C(=S)SC(NC(C)=O)C(Cl)(Cl)Cl (configuration not stated)	inactive: 12%
COP1(=S)c2c(C)nn(CCC#N)c2N=C(c2ccc(F)cc2)N1C (configuration not stated)	inactive: 0.954%
O=C(COc1ccccc1)OC1CN2CCC1CC2 (configuration not stated)	inactive: 2.58%
O=C(Nc1ccncc1[N+](=O)[O-])c1ccc([N+](=O)[O-])cc1[N+](=O)[O-]	inactive: -2.14%

Reference: PubChem BioAssay AID2718 (Broad Institute, 2010)
